The values below come from patent publication US20220370546A1, “PEPTIDE, COMPOSITION, AND METHOD FOR TREATING, PREVENTING, OR AMELIORATING MOOD DISORDER” (KYOTO UNIVERSITY, priority 2019, published 2022).

The subject of the assay is ddY mice. The assay is described as follows: Tail suspension test (evaluation of motivation-enhancing effect). The class given is in vivo. Particulars: oral, in saline, n=5; 0.2 μmol/kg body weight; tail suspension test 30 minutes after administration. How it is done:
Each of the prepared peptides was administered to mice (ddY mice (5-week-old male mice 24 to 28 g in body weight)) by the method shown below. The mice were then subjected to a tail suspension test for the evaluation of a motivation-enhancing effect.
Each peptide was dissolved in saline. The solution was orally administered to mice (n=5) such that each of peptides 3, 4, and 8 was administered in a dose of 0.3 mg/kg body weight and each of peptides 1, 2, 5, 6, and 7 was administered in a dose of 0.2 μmol/kg body weight. Control mice (n=5) were orally administered with only saline. Each of the mice was subjected to a tail suspension test in which the peptide of the present invention was evaluated for its efficacy to enhance motivation.
Thirty minutes after the administration of the peptide, each mouse was suspended with its tail fixed 30 cm above the floor. Subsequently, during a period of 6 minutes from the start of the test (0 minutes), the time (immobility time) during which the mouse remained in a motionless state, observed after the start of escape behavior, was measured, and the measurements were averaged. The motionless state is known as “despair state”. […] This means that materials effective in enhancing motivation in this test may be effective in treating, preventing, or ameliorating mood disorders.
The results shown in FIG. 1 are the values relative to the immobility time of the control group, which is normalized to 100%, with respect to the mice administered with each peptide.
For “Peptide 5: A peptide consisting of the amino acid sequence represented by SEQ ID NO: 5 (QS); comparison dipeptide”, the motivation-enhancing effect result is recorded as “cannot have a sufficient level of motivation-enhancing effect”.
With “Peptide 6: A peptide consisting of the amino acid sequence represented by SEQ ID NO: 6 (QK); comparison dipeptide” the entry was “cannot have a sufficient level of motivation-enhancing effect”; with “Peptide 7: A peptide consisting of the amino acid sequence represented by SEQ ID NO: 7 (SQ); comparison dipeptide”, “cannot have a sufficient level of motivation-enhancing effect”.
